The target in the experiment is T1, Dihydrofolate reductase (Homo sapiens) (UniProt P00374).
T1 sequence (whole entry): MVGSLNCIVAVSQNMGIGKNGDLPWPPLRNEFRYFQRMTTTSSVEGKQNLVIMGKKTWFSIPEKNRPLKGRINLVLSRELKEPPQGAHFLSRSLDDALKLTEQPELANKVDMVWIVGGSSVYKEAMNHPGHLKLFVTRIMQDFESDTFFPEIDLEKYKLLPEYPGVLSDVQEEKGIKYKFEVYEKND
The experiment in a line: Binding affinity to DHFR assessed as change in UV-Vis spectra at 10 uM in HEPES buffer at pH 7.2 by UV-Visible spectroscopy.

Consider `COc1cc(/C=C2\C(=O)Nc3ccccc32)cc(OC)c1O`, for which the K turned out to be 1.3 ×10⁷ /M.

For the origin of these results see ChEMBL document CHEMBL2163263, “Mechanism inspired development of rationally designed dihydrofolate reductase inhibitors as anticancer agents” (J Med Chem, 2012).
